# Measured values published in patent US20110311555A1 (OHIO STATE UNIVERSITY, published 2011).
# By UniProt entry, the sequences of proteins in these tests, tags left out. Residues count along the entry.
# UniProt B2RWS6, 2-2412 limits assumed: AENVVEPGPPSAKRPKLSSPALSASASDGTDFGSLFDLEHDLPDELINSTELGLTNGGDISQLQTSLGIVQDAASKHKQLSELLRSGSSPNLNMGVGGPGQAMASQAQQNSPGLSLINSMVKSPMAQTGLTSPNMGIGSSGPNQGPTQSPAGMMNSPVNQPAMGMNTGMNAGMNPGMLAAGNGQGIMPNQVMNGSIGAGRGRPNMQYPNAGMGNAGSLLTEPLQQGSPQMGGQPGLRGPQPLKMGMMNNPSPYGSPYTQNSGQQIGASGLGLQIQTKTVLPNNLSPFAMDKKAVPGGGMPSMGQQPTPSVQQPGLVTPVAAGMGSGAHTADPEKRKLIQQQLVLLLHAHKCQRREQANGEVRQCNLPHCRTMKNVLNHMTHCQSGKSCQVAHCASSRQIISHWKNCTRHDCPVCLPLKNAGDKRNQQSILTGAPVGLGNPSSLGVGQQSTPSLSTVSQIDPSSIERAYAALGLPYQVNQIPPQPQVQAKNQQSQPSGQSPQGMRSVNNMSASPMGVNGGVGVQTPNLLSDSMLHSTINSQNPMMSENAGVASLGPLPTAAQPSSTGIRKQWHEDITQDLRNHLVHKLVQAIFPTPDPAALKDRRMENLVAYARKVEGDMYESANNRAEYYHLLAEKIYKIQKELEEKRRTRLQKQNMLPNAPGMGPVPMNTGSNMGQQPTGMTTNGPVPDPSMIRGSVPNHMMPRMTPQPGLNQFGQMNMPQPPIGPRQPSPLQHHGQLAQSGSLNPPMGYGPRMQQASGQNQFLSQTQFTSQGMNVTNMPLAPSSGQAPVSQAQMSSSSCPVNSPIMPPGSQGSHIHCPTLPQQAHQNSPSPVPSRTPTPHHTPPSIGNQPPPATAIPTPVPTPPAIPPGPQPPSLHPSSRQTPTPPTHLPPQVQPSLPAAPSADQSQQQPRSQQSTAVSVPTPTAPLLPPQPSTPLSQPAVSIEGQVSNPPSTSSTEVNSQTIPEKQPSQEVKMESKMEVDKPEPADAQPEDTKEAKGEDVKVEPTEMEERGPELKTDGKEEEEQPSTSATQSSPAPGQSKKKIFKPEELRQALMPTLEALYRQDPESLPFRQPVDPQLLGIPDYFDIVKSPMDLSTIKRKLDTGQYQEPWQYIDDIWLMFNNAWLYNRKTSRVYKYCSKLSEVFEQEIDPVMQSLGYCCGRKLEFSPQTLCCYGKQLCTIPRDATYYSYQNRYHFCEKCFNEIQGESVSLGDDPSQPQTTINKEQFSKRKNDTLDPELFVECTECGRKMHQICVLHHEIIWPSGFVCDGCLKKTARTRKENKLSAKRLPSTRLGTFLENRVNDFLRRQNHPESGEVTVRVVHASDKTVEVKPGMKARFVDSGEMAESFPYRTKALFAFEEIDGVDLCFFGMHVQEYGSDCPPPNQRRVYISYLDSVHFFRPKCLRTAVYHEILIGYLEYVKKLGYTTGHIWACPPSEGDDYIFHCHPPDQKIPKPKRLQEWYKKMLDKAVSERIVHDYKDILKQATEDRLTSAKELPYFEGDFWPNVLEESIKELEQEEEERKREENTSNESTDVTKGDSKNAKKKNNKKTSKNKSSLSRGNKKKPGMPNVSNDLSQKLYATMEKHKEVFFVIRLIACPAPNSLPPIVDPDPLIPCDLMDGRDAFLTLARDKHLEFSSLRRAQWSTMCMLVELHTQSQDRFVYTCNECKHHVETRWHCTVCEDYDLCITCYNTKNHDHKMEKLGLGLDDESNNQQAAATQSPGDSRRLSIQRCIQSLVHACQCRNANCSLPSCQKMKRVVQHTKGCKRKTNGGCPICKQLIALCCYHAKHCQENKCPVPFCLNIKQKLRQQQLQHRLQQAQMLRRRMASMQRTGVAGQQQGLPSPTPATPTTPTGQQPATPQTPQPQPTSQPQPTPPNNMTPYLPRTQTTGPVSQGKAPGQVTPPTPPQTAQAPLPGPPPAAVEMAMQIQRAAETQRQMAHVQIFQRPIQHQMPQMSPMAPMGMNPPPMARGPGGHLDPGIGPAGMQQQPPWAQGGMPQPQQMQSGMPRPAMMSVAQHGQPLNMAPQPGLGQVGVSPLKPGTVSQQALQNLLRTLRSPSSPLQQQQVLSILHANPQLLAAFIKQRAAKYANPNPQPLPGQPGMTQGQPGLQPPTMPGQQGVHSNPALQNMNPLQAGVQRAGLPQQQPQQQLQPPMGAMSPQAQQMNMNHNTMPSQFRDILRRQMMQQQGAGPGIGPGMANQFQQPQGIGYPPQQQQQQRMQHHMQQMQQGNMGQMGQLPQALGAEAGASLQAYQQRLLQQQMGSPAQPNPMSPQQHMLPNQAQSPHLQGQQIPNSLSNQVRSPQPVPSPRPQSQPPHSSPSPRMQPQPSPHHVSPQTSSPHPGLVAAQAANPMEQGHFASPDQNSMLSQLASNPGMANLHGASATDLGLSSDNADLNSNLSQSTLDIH
# UniProt P05412, whole entry: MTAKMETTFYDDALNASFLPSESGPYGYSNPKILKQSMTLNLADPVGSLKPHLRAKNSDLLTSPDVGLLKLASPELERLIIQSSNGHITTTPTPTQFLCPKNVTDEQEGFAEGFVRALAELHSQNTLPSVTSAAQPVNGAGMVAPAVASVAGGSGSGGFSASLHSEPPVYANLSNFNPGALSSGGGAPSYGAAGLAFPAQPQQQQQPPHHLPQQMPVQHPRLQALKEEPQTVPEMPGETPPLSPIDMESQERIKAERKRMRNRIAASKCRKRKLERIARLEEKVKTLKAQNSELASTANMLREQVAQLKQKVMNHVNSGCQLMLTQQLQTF
# UniProt P01100, whole entry: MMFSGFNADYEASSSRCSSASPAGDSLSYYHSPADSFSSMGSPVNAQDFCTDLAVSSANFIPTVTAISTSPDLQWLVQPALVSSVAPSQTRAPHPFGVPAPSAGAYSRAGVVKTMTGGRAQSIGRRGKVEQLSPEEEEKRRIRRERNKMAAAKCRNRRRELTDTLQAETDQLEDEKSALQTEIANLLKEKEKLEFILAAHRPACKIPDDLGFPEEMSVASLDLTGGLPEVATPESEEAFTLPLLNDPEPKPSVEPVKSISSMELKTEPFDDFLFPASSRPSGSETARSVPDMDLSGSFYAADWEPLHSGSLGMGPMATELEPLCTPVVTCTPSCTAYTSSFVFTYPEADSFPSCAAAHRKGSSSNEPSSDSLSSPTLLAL
# Substitutions are numbered along the chain they refer to. Names and notes keep the numbering of the source.
# B1: Tcl1 WT (pCMV5-TCL1 WT construct, full-length human TCL1 ORF) (other, UniProt P56279 1-114, looked up)
# chain: MAECPTLGEAVTDHPDRLWAWEKFVYLDEKQHAWLPLTIEIKDRLQLRVLLRREDVVLGRPMTPTQIGPSLLPIMWQLYPDGRYRSSDSSFWRLVYHIKIDGVEDMLLELLPDD
# B2: Tcl1 T38I (pCMV5-TCL1 T38I construct) (other, human, UniProt P56279 1-114, looked up)
# chain: B1 chain with T38I
# Assays:
# Test in all cases: cell-based or functional assay
# [1] = target: p300 of the NIH 3T3 reporter cells (endogenous) (UniProt B2RWS6)
# [2] = target: c-Jun (expression construct in pCMV-SPORT6 vector, ATCC) (UniProt P05412)
# [3] = target: c-Fos-V5 (construct bought from Invitrogen) (UniProt P01100)
# [4] = target: T1, JunB (expression construct in pCMV-SPORT6 vector, ATCC) (UniProt P17275 1-347)
# T1 sequence (looked up): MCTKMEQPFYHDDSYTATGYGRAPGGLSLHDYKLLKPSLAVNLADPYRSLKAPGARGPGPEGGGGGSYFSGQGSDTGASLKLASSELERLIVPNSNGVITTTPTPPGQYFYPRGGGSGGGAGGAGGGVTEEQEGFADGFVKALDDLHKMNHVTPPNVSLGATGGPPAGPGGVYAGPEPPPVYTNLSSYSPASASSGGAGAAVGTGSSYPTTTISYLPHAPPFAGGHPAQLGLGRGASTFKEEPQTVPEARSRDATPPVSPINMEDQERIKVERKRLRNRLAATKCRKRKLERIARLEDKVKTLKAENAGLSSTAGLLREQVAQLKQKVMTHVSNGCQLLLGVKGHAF
Binder,"NF-κB activity (pNF-κB-Luc reporter, NIH 3T3 cells) in the presence of wortmannin, fold activation [1] [fold]","AP-1 reporter (pAP-1-Luc) activated by overexpression of c-Jun alone, 293 cells; inhibition against WT Tcl1 [2]","AP-1 reporter (pAP-1-Luc) activated by overexpression of c-Fos alone, 293 cells; inhibition against WT Tcl1 [3]","AP-1 reporter (pAP-1-Luc) activated by overexpression of JunB alone, 293 cells; inhibition against WT Tcl1 [4]"
B1,> 4,–,–,–
B2,–,~2 fold more effectively than WT Tcl1,~2 fold more effectively than WT Tcl1,~2 fold more effectively than WT Tcl1
